According to EP4825857A1, “TRICYCLIC FUSED HETEROCYCLIC PDE3/4 DUAL INHIBITOR, AND PREPARATION AND USE THEREFOR” (dated 2026):
“And” between values parts separate entries of the source, which are not always exact repeats. Equal values may be shown once.

By UniProt entry, the sequences of proteins in these tests, tags left out.
UniProt Q13946, whole entry: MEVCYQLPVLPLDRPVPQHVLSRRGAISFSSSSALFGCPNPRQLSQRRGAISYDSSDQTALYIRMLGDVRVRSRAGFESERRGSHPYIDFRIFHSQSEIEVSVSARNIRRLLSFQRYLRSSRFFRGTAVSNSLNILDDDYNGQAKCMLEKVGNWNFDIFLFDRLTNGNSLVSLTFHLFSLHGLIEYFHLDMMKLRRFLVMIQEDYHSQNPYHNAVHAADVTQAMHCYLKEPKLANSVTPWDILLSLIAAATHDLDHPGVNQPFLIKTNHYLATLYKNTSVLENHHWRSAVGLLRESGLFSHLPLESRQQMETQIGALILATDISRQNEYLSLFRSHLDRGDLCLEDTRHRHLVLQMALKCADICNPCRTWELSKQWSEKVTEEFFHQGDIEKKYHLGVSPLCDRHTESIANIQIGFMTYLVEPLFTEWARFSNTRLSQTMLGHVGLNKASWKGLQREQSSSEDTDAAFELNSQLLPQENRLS
UniProt Q9NP56, whole entry: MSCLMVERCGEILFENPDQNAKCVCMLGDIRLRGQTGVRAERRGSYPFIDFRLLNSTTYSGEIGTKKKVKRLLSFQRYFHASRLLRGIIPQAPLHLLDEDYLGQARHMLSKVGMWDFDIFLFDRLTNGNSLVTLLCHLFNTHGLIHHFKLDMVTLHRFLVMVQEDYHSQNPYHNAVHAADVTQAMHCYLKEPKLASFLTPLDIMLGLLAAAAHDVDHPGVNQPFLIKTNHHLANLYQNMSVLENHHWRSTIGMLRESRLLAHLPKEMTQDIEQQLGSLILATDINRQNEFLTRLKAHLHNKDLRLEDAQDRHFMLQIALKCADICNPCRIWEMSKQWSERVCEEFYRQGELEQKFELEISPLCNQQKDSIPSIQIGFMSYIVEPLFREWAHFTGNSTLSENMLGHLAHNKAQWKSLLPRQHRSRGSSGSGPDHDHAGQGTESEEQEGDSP

Legend:
[1] = system: Nebulized Acetylcholine-Induced Airway Constriction in Mice; assay: Nebulized acetylcholine-induced airway constriction in mice (airway resistance RL); conditions: for Baseline value / 15 mg/mL ACh challenge / Challenge-induced increase: airway resistance (RL), single animal; for Baseline value: about 0.5 h after nebulized administration (14 mg/mL, 400 µL), before ACh challenge; for 15 mg/mL ACh challenge: after nebulized ACh 15 mg/mL, 20 µL, 30 s; for 15 mg/mL ACh challenge / Challenge-induced increase / Mean: compound 14 mg/mL; for Inhibition (%): inhibition of ACh challenge-induced increase of airway resistance, compound 14 mg/mL nebulized; for Mean: mean of challenge-induced increase of airway resistance, 3 animals
Procedure: Preparation of test compound: the test compounds were weighed as pure compounds without considering impurities due to the high purity of the test compounds. The test compound was prepared at a concentration of 10 mg/mL, using a pH 3.2 citric acid-disodium hydrogen phosphate buffer containing 25% DMSO as the solvent.
Administration of test compounds: The test compounds were administered to mice by oronasal nebulization using a NAM system from DSI. Each mouse received a total volume of 400 µL, delivered in two nebulization sessions of 5 min each. The model group received an equal volume of vehicle by nebulization.
Newly received experimental animals were quarantined for 3 days and grouped as described above. Airway nebulized administration was performed using the NAM system, with the nebulization procedure consisting of 5-min nebulization (200 µL), a 3-min interval, and another 5-min nebulization (200 µL). Approximately 0.5 h after completion of nebulized administration, acetylcholine was nebulized using the RC system (15 mg/mL, 20 µL, 30 s, prepared in 0.9% normal saline) to challenge the animals to induce airway constriction, and changes in airway resistance (RL) were simultaneously measured using the RC instrument.

PDE7A1 = PDE7A1 (Homo sapiens, UniProt Q13946); assay: PDE enzyme activity inhibition assay II (fluorescence polarization); conditions: read-out: IC50, nM PDE7A1; FP assay II, Table 5
Procedure: (§1) In a reaction buffer, i.e., 1× IMAP Reaction Buffer containing 0.1% BSA and supplemented with 1 mM DTT, a PDE enzyme solution and a substrate solution (FAM-cyclic AMP/cyclic AMP) were prepared. The positive control was prepared at an initial concentration of 1/10 µM for the PDE assay and was diluted 3-fold, with a 10+0 dose design. Using the acoustic liquid handling technology (Echo 655), 0.05 µL of each compound in 100% DMSO was transferred into a 384-well plate (Corning 4514), followed by centrifugation at 1,000 rpm for 1 min. Then, 2.5 µL of the PDE enzyme solution was transferred into the 384-well reaction plate, followed by centrifugation at 1,000 rpm for 1 min and incubation at 25 °C for 10 min. Subsequently, 2.5 µL of the substrate solution was transferred into the 384-well reaction plate, followed by centrifugation at 1,000 rpm for 1 min and incubation at 25 °C for 60 min. Then, 15 µL of a binding reagent mixture was transferred into the 384-well reaction plate, followed by centrifugation at 1,000 rpm for 1 min and incubation at 25 °C for 60 min. Finally, the FP signal was measured using a BMG PHERAstar FSX plate reader. IC50 values and nonlinear regression curve fitting were obtained using GraphPad Prism software.
(§2) The inhibitory activities of the compounds against PDE enzymes were evaluated using the FP method, with RPL-554 and compound D7 as control compounds. The detailed test method was the same as that described in PDE Enzyme Activity Inhibition Assay I. The structural formulae of RPL-554 and compound D7 are shown below. [drawing 183]

PDE7B = PDE7B (Homo sapiens, UniProt Q9NP56); assay: as above; conditions: read-out: IC50, nM PDE7B; FP assay II, Table 5
Procedure: as §1, §2

TNF-α = assay: LPS-induced inflammatory model in human monocytes, TNF-α in cell culture supernatant; conditions: LPS 1 µg/mL, 24 h, 0.78 and 1.56 µmol/L, compared with the model control group
Procedure: Human monocytes were resuspended in RPMI 1640 complete medium containing 1% fetal bovine serum (FBS) and seeded into 96-well plates at a density of 1 × 10^6 cells/mL, with 100 µL of cell suspension each well. The cells were divided into 14 groups, with six replicates per group, including a normal control group, a model control group, RPL-554 low- and high-dose positive control groups (0.78 and 1.56 µmol/L), Compound 1-2 low- and high-dose groups (0.78 and 1.56 µmol/L), Compound 10-2 low- and high-dose groups (0.78 and 1.56 µmol/L), Compound 12-1 low- and high-dose groups (0.78 and 1.56 µmol/L), and Compound 19 low- and high-dose groups (0.78 and 1.56 µmol/L). The working concentration of LPS in the model control group and compound-treated groups was 1 µg/mL. The cells were further incubated in the absence or presence of LPS and the compounds (5% CO2, 37°C). After 24 h, the cell culture supernatants were collected and centrifuged at 2,000-3,000 × g for 5 min. The precipitate was removed, and the supernatants were collected for determination of TNF-α levels.

Row | SMILES | Baseline value [1] | 15 mg/mL ACh challenge [1] | Challenge-induced increase [1] | Inhibition (%) [1] | Mean [1] | IC50 (PDE7A1) | IC50 (PDE7B) | TNF-α levels in the cell culture supernatants (TNF-α)
1 | COc1cc2c(cc1OC)-c1cc(N(c3c(C)cc(C)cc3C)C(C)CNC(N)=O)nc(=O)n1CC2 (single isomer, unassigned) [Compound 1-2] | 1.0 | 3.1 and 1.9 and 2.3 | 2.1 and 0.9 and 1.3 | 86.5% | 1.4 | > 10000 nM | 9950 nM | –
2 | COc1cc2c(cc1OC)-c1cc(=Nc3c(C)cc(C)cc3C)n(CCNC(N)=O)c(=O)n1CC2 | 1 (2×) and 0.9 | 5.5 and 10.3 and 9.9 | 4.5 and 9.4 and 8.9 | 28.3% | 7.6 | > 10000 nM | > 10000 nM | showed a decrease with statistic significance
